The target of data set [1] is full-length human GCN2 enzyme (Homo sapiens, UniProt Q9P2K8). In words: GCN2 enzyme inhibition, LanthaScreen TR-FRET Kinase Activity assay (10 μM and 300 μM ATP). Type of data set: biochemical. Particulars: for IC50 / Ki: mean of replicate assays.
Data set [2] can be described thus: Kinetic solubility in PBS buffer pH 7.4. Particulars: PBS buffer pH 7.4, 90 minutes at room temperature, from 10 mM DMSO stock.

Sequences of proteins named here, by UniProt entry; tags and fusion partners are left off.
UniProt Q9P2K8, whole entry: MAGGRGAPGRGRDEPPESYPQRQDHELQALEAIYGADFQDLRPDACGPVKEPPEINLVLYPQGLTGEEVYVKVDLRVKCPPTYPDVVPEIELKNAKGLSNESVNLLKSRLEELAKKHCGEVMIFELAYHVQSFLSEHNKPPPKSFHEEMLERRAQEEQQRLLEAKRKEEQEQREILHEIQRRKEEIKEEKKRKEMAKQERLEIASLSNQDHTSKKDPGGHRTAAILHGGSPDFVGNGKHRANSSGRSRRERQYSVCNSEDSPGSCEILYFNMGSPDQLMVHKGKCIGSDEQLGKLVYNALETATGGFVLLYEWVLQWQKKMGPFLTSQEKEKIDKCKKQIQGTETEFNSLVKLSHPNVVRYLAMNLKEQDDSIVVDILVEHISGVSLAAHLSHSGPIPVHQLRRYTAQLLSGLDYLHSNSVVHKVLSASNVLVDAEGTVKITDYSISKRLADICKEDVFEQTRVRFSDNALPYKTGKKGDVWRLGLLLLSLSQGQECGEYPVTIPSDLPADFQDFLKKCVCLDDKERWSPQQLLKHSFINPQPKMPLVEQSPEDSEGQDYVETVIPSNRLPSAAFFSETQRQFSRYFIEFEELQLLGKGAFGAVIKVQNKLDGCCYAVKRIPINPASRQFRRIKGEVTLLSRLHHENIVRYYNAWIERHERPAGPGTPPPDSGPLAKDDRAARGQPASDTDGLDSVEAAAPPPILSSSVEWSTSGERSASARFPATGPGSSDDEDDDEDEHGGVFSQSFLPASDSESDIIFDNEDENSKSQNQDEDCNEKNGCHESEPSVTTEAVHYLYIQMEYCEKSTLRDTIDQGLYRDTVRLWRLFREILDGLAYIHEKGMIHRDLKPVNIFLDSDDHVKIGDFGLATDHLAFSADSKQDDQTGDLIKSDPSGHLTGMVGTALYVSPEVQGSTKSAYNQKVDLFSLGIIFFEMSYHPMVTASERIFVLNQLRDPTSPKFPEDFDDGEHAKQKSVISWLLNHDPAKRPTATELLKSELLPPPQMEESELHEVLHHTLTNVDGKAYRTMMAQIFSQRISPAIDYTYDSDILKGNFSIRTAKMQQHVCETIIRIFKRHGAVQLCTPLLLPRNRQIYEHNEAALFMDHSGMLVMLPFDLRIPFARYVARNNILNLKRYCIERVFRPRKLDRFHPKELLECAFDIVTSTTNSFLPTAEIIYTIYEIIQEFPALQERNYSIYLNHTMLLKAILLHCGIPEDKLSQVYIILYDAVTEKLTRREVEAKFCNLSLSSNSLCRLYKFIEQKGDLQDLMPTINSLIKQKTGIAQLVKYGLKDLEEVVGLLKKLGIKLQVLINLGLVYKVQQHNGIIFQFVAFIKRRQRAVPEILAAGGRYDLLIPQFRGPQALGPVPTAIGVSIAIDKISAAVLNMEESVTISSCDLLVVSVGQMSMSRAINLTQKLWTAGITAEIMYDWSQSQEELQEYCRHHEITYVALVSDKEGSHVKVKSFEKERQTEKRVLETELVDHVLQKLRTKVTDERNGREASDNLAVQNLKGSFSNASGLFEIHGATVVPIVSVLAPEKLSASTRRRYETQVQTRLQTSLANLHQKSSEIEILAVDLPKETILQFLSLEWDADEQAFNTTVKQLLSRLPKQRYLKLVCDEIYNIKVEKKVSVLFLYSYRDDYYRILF

From patent US11945799B2, “4-ethynylpyridine derivatives useful as GCN2 inhibitors” (IP2IPO INNOVATIONS LIMITED, priority 2020, dated 2024) come the findings set out here.

Where two headings read alike, the source gives them in different places.

As for `COc1ncc(Cl)cc1S(=O)(=O)Nc1ccc(F)c(C#Cc2cnc3[nH]ncc3c2)c1F`, the IC50 in data set [1] (read-out: GCN2 IC50 (nM) 10 uM ATP, 10 uM ATP) was 5.8 nM; in data set [1] (read-out: GCN2 IC50 (nM) 300 uM ATP, 300 uM ATP), 31 nM. The inhibitory constant (Ki) in data set [1] (read-out: GCN2 Ki (nM) 10 uM ATP, 10 uM ATP) came out at 1.8 nM; in data set [1] (read-out: GCN2 Ki (nM) 300 uM ATP, 300 uM ATP), 0.5 nM. Also, the “Kinetic Solubility” value in data set [2] turned out to be 3.9 µg/mL.

Regarding `Nc1ncc(C#Cc2nccc(NS(=O)(=O)c3cc(Cl)ccc3Cl)c2F)cn1`, the “GCN2 inhibitory activity (in words)” value in data set [1] is “extremely poor activity”. In addition, the “Kinetic Solubility” value in data set [2] came to 227.3 µg/mL.

In general, IC50 refers to the concentration that inhibits the measured activity by half. The Ki is a measure of affinity in units of concentration, obtained from inhibition or displacement.
